Assay results taken from US20230119324A1, “EGFR INHIBITION TRIGGERS AN ADAPTIVE RESPONSE BY CO-OPTING ANTIVIRAL SIGNALING PATHWAYS IN LUNG CANCER” (The United States Government as represented by the …, priority 2020, published 2023).

System: EGFR mutant NSCLC cell lines
Assay: AlamarBlue cell viability assay, EGFR mutant NSCLC cell lines
Format: cell-based
Settings: 0.1 µM erlotinib, IFNα1 or IFNβ1 50 ng/mL, 72 h
Method: Cell viability assays were conducted with AlamarBlue Cell Viability Reagent from ThermoFisher (Waltham, MA), following the manufacturer’s protocol. Cells were cultured in Coming (Corning, NY) 96-well black plates with clear bottom and detected by the POLARstar Omega Microplate Reader (BMG LABTECH) (excitation at 544 nm and emission at 590 nm). At least 3 independent experiments were done.

B1: IFNβ: recombinant IFNβ1, exogenous Type I interferon (protein, UniProt P01574 22-187, looked up)
Interferon beta: MSYNLLGFLQRSSNFQCQKLLWQLNGRLEYCLKDRMNFDIPEEIKQLQQFQKEDAALTIYEMLQNIFAIFRQDSSSTGWNETIVENLLANVYHQINHLKTVLEEKLEKEDFTRGKLMSSLHLKRYYGRILHYLKAKEYSHCAWTIVRVEILRNFYFINRLTGYLRN
With B1 the “protection from erlotinib-induced cell death” value was “protects NSCLC cells with mutant EGFR activating from cell death”.
